# AlphaSeq binding of Ab-91 heavy chain variants to a spike HR2 peptide

Data: MIT Lincoln Laboratory AlphaSeq set, Engelhart et al. 2022, doi:10.1038/s41597-022-01779-4, as distributed in FLAb.

Binding partner: SARS-CoV-2 spike HR2 peptide, sequence PDVDLGDISGINAS.

Ab-91 is the parent antibody, in scFv form: VL, then three GGGGS repeats, then VH. The light chain is unchanged in all variants.
VL: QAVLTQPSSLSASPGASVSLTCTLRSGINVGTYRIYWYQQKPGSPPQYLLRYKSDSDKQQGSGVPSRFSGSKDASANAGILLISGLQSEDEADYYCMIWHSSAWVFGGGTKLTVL
VH: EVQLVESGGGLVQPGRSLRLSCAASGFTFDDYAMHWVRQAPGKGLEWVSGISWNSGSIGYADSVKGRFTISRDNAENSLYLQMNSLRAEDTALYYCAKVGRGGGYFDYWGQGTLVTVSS

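The starting antibody came from a phage panning campaign against this peptide. AAYL51 was designed without a model: most single CDR substitutions and a random sample of double and triple ones. Affinity was read by AlphaSeq, a pooled yeast mating assay with surface-displayed partners. Binding brings cells together so that they mate, and sequencing counts the barcode pairs among the diploids. Read counts were normalised to the haploid input and turned into Kd by a linear fit to BCL2-family pairs of known affinity, for each replicate. There are three technical replicates.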

Substitutions are numbered in sequence along the VH above, starting at 1 (not Kabat).
Affinities are written as log10 Kd with Kd in nM; a lower number is a better binder.
The mean shown is taken over the replicates in which the pair was detected.
"no signal" means that the variant was in the library but no mating with the target was seen in any replicate; the authors take this as a sign of poor binding, and no number exists.

changes	log10 Kd (nM), mean	replicates with signal
M34F+G59N+Y105K	4.40	1 of 3
Y32C+S55R+G56V	4.77	2 of 3
W53C+S57R+Y60S	no signal	0 of 3
M34H+Y105I+Y108R	no signal	0 of 3
A33G+G50A+S63V	4.13	1 of 3
Y32P+H35L+W53L	5.49	2 of 3
M34P+N54P+R101E	no signal	0 of 3
H35M+V99W+G103T	no signal	0 of 3
Y32P+A33G+D107T	4.21	1 of 3
G59D+G102P+G103E	no signal	0 of 3
D31R+Y32A+G50H	4.30	1 of 3
G50W+S57R	5.09	1 of 3
W53F+S63Q+G103S	no signal	0 of 3
S55L+S57D+K65E	no signal	0 of 3
F27C+Y32W+G56V	no signal	0 of 3
I58D+G104Q+Y108R	4.01	1 of 3
D31V+G100Y	4.37	1 of 3
F29W+G103S+D107C	no signal	0 of 3
F29T+G102Y+Y108F	1.22	3 of 3
I58E+F106I+D107F	1.49	3 of 3
G26W+G59I+S63V	4.99	2 of 3
S52F+D62I+D107V	no signal	0 of 3
D31W+V99K+G104V	no signal	0 of 3
S55T+V64G+G100S	no signal	0 of 3
D30H+G102I+Y108Q	1.42	3 of 3
M34E+S52D+A61I	no signal	0 of 3
S52M+S57E+Y105C	3.91	1 of 3
D31S+S55V+F106C	2.85	3 of 3
Y32L+G104H+D107A	5.23	3 of 3
F27Y+S55G+G103V	4.57	1 of 3
N54K+K65Q+G104L	4.70	2 of 3
G50K+A61C+S63A	5.18	2 of 3
T28A+G56D+Y60S	2.90	3 of 3
T28P+S52K+D62V	no signal	0 of 3
W53Y+I58G+A61E	no signal	0 of 3
A33L+M34I+G102K	no signal	0 of 3
F27E+G104P+Y105K	no signal	0 of 3
F27Y+G103W+Y108P	0.97	3 of 3
H35M+I58M+G100M	no signal	0 of 3
I51F+A61Y+Y105I	no signal	0 of 3
G26H+Y32Q+G103S	no signal	0 of 3
A33F+H35R+K65C	no signal	0 of 3
N54S+S55Y+V99L	no signal	0 of 3
I51Q+Y60S+V64M	no signal	0 of 3
S55N+A61P	5.03	3 of 3
G26I+F27R+Y32W	no signal	0 of 3
F27R+A33H+K65L	4.03	1 of 3
T28P+K65H+R101Y	2.62	3 of 3
H35C+G56H+S57L	no signal	0 of 3
T28S+G50T+V64W	no signal	0 of 3
Y60W+A61Q+G100P	4.85	1 of 3
S52N+I58A+V64N	no signal	0 of 3
I51M+G56W+V64D	no signal	0 of 3
M34N+V64K+G104E	5.51	3 of 3
G56C+G59S+G103V	5.27	1 of 3
F27L+Y32V+N54I	no signal	0 of 3
T28Q+G100H+D107N	3.45	1 of 3
G26A+H35M+F106W	5.07	2 of 3
S52H+G56V+R101K	2.56	1 of 3
A33G+H35F+D107C	4.40	2 of 3
T28H+S63A+G103H	5.41	2 of 3
T28S+D30I+S52C	4.80	2 of 3

Excerpt, the final 4 entries:

changes	log10 Kd (nM), mean	replicates with signal
S52H+G56V+R101K	2.56	1 of 3
A33G+H35F+D107C	4.40	2 of 3
T28H+S63A+G103H	5.41	2 of 3
T28S+D30I+S52C	4.80	2 of 3

Three control strains display no target. For library AAYL51, 21% of the pairings with them gave a signal, with a median of 4.54 and one signal in twenty below 3.26, so weak values seen in few replicates may be background.